Data on one molecule can be found in patent US10336675B2, “Biaromatic vitamin D analogs” (DSM IP ASSETS B.V., priority 2015, dated 2019).

The chains behind the UniProt entries cited, without tags or fusion partners. Residues count along the entry.
UniProt P11473, 127-423 limits assumed: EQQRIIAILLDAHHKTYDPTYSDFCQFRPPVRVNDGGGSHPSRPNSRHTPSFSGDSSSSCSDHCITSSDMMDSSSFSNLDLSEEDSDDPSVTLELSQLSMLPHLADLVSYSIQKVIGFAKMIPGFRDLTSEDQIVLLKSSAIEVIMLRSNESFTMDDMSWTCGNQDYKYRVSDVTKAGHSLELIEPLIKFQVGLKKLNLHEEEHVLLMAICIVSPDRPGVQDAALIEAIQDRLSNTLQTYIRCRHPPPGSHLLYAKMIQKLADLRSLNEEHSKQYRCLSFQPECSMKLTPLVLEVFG

This experiment concerns the target human vitamin D receptor (VDR) (Homo sapiens, UniProt P11473). The experiment is described as follows: Human vitamin D receptor (VDR) agonist activity: GAL4-VDR LBD luciferase transactivation assay in transiently transfected HEK293 cells. Conditions: read-out: Effective concentrations of half maximal activation (EC50), VDR LBD-GAL4 DBD fusion, pFR-Luc luciferase reporter, 16 h incubation. A general note: In a reporter assay the amount or activity of a reporter protein is the signal.

`CC/C(=C\C=C\C(O)(CC)CC)c1cccc(CCc2ccc(CO)c(CO)c2)c1`: the EC50 worked out at 74 nM.
